The assay addresses Pyruvate kinase PKM (Homo sapiens, UniProt P14618). Briefly: Activation of human PKM2 assessed as pyruvate formation at 57 uM after 1 hr by fluorescent pyruvate kinase-lactate dehydrogenase coupled assay relative to fructose-1,6-bis-phosphate.

Protein sequences, listed by entry. Tags and fused reporters are not part of them.
UniProt P14618, whole entry, looked up: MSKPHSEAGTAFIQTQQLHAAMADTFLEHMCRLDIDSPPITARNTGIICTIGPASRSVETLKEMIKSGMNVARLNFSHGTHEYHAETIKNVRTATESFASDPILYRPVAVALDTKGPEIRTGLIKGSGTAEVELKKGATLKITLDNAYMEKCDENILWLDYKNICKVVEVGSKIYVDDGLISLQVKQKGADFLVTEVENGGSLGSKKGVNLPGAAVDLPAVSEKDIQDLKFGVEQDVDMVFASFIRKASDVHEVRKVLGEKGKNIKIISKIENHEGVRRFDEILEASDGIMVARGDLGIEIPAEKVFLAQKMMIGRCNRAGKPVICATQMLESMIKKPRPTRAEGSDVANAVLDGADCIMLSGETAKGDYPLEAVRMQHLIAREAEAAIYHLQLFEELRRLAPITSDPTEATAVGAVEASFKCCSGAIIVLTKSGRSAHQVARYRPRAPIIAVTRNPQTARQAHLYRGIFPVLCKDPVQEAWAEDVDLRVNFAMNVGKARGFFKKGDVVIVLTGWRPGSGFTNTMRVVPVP

The structures appear in SMILES notation.

With `Cc1cc2c(s1)c1cnn(Cc3ccccc3F)c(=O)c1n2C`, the Activity turned out to be 22.4%.

The values above are taken from ChEMBL document CHEMBL1155492, “Evaluation of thieno[3,2-b]pyrrole[3,2-d]pyridazinones as activators of the tumor cell specific M2 isoform of pyruvate kinase” (Bioorg Med Chem Lett, 2010).
